Test results: publication PMC3335988 (Neurochemistry international, 2011)

Sequences of proteins named here, by UniProt entry; tags and fusion partners are left off. Residues count along the entry.
UniProt Q62645, 28-1323: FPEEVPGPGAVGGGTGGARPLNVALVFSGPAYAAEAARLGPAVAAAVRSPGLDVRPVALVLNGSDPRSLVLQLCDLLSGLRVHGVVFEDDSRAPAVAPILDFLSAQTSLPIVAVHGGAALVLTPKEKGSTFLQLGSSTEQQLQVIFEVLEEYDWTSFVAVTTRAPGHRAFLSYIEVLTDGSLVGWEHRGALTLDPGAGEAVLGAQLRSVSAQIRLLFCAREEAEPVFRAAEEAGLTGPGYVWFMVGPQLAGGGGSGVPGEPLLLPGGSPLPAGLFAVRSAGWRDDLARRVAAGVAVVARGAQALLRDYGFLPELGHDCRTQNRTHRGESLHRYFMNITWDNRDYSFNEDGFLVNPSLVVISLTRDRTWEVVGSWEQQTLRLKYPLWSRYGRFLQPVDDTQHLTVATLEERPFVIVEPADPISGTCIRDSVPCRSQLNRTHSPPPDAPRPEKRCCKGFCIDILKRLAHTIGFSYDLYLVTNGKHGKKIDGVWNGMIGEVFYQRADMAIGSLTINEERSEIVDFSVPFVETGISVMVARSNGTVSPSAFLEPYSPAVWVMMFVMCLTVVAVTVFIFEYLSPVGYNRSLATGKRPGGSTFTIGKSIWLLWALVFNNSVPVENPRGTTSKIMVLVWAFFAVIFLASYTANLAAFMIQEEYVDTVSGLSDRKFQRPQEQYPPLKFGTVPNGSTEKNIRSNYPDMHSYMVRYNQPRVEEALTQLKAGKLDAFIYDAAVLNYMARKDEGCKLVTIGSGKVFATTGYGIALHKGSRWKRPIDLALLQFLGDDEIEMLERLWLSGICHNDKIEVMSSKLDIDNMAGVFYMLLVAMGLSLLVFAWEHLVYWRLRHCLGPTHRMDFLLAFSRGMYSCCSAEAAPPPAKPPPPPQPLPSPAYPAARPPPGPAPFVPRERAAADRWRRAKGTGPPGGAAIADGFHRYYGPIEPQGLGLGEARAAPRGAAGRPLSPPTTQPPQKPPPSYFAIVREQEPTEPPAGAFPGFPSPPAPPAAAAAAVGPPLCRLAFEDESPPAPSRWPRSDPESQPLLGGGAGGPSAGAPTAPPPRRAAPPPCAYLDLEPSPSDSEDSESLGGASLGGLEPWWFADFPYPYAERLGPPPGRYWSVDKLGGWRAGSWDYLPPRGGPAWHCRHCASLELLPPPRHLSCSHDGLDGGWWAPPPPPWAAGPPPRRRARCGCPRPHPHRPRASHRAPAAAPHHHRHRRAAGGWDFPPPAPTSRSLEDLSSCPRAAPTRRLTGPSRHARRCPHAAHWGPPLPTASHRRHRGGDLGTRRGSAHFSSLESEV
UniProt Q00960, 27-1482: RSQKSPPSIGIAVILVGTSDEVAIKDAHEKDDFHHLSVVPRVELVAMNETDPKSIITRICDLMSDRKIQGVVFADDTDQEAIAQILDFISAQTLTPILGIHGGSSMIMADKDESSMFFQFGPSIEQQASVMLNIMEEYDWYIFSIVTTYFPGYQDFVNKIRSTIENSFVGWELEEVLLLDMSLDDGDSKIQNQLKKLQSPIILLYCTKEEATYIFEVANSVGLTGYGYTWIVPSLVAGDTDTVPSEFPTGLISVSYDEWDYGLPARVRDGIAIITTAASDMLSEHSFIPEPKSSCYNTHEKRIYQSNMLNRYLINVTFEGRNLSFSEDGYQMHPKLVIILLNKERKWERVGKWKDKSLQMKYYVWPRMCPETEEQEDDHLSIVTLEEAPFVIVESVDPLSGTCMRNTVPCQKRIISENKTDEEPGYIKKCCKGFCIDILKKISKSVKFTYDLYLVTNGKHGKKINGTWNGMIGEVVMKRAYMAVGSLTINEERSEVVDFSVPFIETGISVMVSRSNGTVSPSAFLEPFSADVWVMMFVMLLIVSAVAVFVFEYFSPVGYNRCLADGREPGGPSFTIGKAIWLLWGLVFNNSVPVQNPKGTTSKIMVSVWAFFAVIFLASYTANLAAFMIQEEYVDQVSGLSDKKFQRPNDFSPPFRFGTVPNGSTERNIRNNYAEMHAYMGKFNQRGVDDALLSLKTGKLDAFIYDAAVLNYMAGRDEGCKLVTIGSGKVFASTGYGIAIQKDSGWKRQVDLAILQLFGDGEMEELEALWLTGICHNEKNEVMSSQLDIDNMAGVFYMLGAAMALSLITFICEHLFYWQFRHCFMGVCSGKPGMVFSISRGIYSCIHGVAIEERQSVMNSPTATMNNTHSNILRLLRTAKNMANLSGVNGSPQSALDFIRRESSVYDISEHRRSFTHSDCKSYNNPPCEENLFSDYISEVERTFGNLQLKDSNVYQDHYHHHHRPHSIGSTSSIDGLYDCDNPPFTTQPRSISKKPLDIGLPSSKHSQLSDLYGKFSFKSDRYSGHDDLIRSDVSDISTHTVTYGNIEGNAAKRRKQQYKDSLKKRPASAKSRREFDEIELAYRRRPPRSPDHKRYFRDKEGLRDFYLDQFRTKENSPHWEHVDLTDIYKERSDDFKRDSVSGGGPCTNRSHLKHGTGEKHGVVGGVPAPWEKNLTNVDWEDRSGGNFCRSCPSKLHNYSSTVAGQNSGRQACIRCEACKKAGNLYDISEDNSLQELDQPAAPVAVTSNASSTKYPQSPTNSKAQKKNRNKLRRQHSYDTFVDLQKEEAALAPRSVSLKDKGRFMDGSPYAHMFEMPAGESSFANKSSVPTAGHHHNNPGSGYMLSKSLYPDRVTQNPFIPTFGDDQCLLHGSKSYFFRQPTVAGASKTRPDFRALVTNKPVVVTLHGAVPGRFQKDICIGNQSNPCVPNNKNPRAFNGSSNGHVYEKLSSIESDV
UniProt Q00959, 23-1464: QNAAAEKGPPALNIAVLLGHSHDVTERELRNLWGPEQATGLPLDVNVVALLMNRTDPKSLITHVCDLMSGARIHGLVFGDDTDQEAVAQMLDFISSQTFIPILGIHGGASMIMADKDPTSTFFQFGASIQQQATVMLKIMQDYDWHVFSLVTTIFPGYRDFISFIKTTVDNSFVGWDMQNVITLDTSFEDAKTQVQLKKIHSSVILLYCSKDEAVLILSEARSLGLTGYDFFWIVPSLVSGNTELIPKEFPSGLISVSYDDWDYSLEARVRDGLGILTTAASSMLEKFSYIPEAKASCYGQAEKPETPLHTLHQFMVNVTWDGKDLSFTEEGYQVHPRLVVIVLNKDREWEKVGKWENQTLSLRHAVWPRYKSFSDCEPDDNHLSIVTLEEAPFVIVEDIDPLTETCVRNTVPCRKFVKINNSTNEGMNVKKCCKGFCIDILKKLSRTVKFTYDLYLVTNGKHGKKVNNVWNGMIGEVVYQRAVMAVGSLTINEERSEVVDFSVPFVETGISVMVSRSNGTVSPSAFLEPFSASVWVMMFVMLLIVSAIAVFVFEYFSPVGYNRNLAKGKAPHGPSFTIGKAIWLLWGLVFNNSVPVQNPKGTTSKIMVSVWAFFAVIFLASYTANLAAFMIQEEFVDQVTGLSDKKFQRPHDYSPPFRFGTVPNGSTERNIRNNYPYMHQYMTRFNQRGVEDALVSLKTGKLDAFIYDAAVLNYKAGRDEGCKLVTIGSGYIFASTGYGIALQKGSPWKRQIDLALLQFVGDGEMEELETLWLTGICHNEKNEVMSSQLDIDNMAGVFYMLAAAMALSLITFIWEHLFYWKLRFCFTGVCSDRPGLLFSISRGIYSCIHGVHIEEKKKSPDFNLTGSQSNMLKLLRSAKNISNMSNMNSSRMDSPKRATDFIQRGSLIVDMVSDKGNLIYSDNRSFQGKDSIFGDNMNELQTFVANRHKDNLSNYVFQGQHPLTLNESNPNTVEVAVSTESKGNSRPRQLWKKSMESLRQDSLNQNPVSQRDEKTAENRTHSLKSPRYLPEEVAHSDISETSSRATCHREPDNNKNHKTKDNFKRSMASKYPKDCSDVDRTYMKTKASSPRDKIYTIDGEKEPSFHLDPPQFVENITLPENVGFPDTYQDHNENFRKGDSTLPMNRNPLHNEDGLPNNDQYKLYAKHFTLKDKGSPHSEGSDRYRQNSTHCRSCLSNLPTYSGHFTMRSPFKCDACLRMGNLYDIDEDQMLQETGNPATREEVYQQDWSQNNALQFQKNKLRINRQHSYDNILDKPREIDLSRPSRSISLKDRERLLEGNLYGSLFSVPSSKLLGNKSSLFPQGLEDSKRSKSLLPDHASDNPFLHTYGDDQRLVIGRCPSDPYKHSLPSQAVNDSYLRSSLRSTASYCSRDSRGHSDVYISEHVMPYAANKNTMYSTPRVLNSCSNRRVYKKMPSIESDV
UniProt Q00961, 20-1237: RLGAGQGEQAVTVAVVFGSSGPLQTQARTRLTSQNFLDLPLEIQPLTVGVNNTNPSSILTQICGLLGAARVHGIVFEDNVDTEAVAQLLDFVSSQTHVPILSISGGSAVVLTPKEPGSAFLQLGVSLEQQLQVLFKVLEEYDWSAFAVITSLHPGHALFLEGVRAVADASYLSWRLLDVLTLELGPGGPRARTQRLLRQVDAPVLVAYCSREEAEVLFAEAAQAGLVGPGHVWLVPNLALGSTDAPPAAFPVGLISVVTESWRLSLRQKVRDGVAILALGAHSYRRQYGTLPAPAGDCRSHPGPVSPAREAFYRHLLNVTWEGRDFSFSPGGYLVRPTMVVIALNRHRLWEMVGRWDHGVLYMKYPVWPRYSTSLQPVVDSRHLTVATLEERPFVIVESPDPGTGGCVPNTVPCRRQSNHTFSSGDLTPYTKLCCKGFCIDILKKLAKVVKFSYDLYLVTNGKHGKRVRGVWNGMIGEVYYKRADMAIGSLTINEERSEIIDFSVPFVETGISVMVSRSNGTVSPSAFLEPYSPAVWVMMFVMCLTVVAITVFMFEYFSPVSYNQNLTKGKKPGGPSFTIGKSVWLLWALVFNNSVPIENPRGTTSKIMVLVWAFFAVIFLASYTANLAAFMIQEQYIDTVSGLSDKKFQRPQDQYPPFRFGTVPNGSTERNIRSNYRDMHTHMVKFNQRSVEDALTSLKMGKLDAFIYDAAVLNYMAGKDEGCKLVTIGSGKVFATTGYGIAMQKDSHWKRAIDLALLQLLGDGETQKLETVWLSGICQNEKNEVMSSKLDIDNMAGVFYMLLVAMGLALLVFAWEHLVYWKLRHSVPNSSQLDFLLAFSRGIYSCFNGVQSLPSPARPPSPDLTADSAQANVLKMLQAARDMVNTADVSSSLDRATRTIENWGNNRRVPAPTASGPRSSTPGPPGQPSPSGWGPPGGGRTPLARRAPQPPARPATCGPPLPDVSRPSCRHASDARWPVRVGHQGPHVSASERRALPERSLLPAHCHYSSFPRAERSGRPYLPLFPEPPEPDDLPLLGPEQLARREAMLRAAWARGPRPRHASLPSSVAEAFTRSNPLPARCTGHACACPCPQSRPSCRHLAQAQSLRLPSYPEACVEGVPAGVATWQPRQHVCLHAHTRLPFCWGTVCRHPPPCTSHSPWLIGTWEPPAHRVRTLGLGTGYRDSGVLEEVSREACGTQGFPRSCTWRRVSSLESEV

What was measured:
Type in all cases: cell-based
Conditions in all cases: 100 µM glutamate
rat GluN1/GluN2D = rat GluN1/GluN2D (Rattus norvegicus, UniProt P35439+Q62645)
rat GluN1/GluN2B = rat GluN1/GluN2B (Rattus norvegicus, UniProt P35439+Q00960)
rat GluN1/GluN2A = rat GluN1/GluN2A (Rattus norvegicus, UniProt P35439+Q00959); assay: Two-electrode voltage-clamp recordings, recombinant receptors in Xenopus oocytes
rat GluN1/GluN2C = rat GluN1/GluN2C (Rattus norvegicus, UniProt P35439+Q00961)

NCC(=O)O [glycine]
nH (Hill slope) (rat GluN1/GluN2D): 1.6
nH (Hill slope) (rat GluN1/GluN2B): 1.8
nH (Hill slope) (rat GluN1/GluN2A): 1.2
nH (Hill slope) (rat GluN1/GluN2C): 1.5
